A word on the Ki: it is a measure of affinity in units of concentration, obtained from inhibition or displacement.

Protein sequences, listed by entry. Tags and fused reporters are not part of them. Residues count along the entry.
UniProt O00187, 445-686 limits assumed: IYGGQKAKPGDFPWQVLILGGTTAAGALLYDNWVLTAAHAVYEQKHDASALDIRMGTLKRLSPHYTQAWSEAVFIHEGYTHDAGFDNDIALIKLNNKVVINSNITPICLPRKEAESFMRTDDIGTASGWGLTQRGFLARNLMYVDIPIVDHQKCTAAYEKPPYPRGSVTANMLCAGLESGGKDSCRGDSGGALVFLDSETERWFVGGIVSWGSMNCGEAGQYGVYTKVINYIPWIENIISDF
UniProt Q91WP0, 20-685 limits assumed: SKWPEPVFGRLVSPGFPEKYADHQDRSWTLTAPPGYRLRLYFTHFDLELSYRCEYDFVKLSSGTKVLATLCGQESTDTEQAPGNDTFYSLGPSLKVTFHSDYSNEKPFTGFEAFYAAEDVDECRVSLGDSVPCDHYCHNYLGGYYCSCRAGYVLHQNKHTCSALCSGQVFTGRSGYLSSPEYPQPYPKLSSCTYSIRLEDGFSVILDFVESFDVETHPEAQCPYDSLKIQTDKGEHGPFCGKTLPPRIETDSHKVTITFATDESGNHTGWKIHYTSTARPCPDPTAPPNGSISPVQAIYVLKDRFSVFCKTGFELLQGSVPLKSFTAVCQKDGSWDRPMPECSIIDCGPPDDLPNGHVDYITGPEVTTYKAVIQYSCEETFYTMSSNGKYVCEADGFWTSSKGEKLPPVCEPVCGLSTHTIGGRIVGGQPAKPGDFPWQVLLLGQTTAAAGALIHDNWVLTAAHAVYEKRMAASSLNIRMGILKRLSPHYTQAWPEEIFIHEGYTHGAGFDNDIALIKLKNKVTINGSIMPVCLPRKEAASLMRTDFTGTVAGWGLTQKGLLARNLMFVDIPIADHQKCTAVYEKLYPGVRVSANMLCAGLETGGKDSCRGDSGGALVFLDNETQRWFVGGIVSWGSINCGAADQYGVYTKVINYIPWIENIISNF

The values that follow come from patent publication US11584714B2.

Some results are limits rather than exact numbers.

One assay deals with MASP-2 (CCP1-CCP2-SP) (Homo sapiens (Human), UniProt O00187). To be noted: for MASP-2 vs. thrombin selectivity: MASP-2 inhibition versus thrombin; for Ki: read-out: MASP-2 Ki.
In another assay the target is human α-thrombin (Homo sapiens (Human), UniProt P00734). Briefly: Enzymatic assay for thrombin. Particulars: read-out: Thrombin Ki. In kind it is biochemical.
The target of a further assay is mMASP-2 (Mus musculus (Mouse), UniProt Q91WP0). As to the kind of experiment: Enzymatic inhibition of mMASP-2. Type of assay: biochemical. To be noted: read-out: mMASP-2 Ki.

Take `C[C@H](NC(=O)[C@@H](CCc1ccccc1)NCc1cc2ccccc2[nH]1)C(=O)NCc1ccc(C(=N)N)cc1`: at MASP-2 (CCP1-CCP2-SP), the “MASP-2 vs. thrombin selectivity” value was “−− (less than 1.0-fold)”. Further, the Ki at MASP-2 (CCP1-CCP2-SP), at human α-thrombin and on mMASP-2 was under 500 nM throughout.
`COC(=O)CCCCCN[C@H](CCc1ccccc1)C(=O)N[C@@H](C)C(=O)NCc1ccc(C(=N)N)cc1`: the “MASP-2 vs. thrombin selectivity” value at MASP-2 (CCP1-CCP2-SP) is “* (1.0 to 5.0-fold)”. Also, the Ki on MASP-2 (CCP1-CCP2-SP) and on human α-thrombin was under 500 nM throughout.
Take `C[C@H](NC(=O)[C@@H](CCc1ccccc1)NCc1ccc(F)cc1)C(=O)NCc1ccc(C(=N)N)cc1`: at MASP-2 (CCP1-CCP2-SP), the “MASP-2 vs. thrombin selectivity” value is given as “−− (less than 1.0-fold)” and the Ki was under 500 nM. Also, on human α-thrombin, the Ki is under 500 nM.
